Test results taken from EP1903052A2, “APJ receptor ligands and uses thereof” (Faust Pharmaceuticals SA, priority 2006, dated 2008).
Like-named read-outs stand apart in the source and are kept apart here.

The chains behind the UniProt entries cited, without tags or fusion partners. Where a name states a change or a piece, a line headed by the entry shows the natural chain unless it says otherwise.
UniProt Q9ULZ1: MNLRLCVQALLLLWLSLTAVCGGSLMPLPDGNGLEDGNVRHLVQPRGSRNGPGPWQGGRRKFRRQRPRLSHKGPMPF

Experiments:
rat APJ receptor = target: T1, rat APJ receptor (Rattus norvegicus, UniProt Q9JHG3); details: cited from earlier work
T1 construct: expressed in transfected cells; host or cells: CHO cells, stably transfected
T1 sequence (Q9JHG3 1-377): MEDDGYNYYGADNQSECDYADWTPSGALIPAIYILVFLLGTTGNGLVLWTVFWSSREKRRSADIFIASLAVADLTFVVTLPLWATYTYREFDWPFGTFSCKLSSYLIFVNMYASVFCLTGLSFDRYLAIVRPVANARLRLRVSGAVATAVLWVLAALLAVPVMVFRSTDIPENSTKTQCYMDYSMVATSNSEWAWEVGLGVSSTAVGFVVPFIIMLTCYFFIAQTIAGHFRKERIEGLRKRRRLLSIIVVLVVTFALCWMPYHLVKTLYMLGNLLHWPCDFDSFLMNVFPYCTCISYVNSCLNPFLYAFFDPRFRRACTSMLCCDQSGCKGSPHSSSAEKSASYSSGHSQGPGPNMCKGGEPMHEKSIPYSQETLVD

rat apelin receptor-EGFP [1] = target: T2, rat apelin receptor-EGFP (Rattus norvegicus, UniProt Q9JHG3); details: cited from earlier work
T2 construct: expressed in transfected cells; host or cells: CHO cells, stably transfected
T2 sequence (Q9JHG3 1-377): T1 sequence (Q9JHG3 1-377)

rat apelin receptor-EGFP [2] = target: T2, rat apelin receptor-EGFP; assay: Internalization of the apelin receptor-EGFP in CHO cells (confocal microscopy); format: cell-based; details: 100 nM, stimulation for 20 min
Procedure: The compound 7 as well as the apelin fragments: fluorescent apelin 13 (lissamine) and non fluorescent apelin 13 were tested on the internalization of the murine apelin receptor tagged with EGFP.
Approximately 2.5 x 10^5 stably transfected CHO cells expressing the rat apelin receptor-EGFP, in Ham's F12 medium, were used to seed polyallylamine hydrochloride-coated (Aldrich Sigma, 0.1 mg/ml for 30 min) 16-well glass slides (Lab-Tek Chamber Slides, Nalge Nunc, Rochester, NY). Cells were cultured overnight in a humidified atmosphere of 5% CO2 / 95% air. To prevent de novo the protein synthesis, cells were incubated for 90 min before plating with 90 µM of cycloheximide at 37°C and cycloheximide was maintained in the medium during and after incubation with ligands. […]
Cells were examined with a Leica TCS SP 2 (Leica Microsystems, Heidelberg, Germany) confocal laser scanning microscope mounted on a Leica DM IRBE inverted microscope equipped with an argon/krypton laser. EGFP fluorescence was detected with 100% excitation at 488 nm, using a RSP 500 (dichroic) mirror with the emission wavelength set at 530-560 nm. […]

[3] = 100 nM, Reaux et al., J. Neurochem., 2001

Substance	forskolin-stimulated cAMP production (rat APJ receptor; [3])	IC50 (rat APJ receptor; inhibition of cAMP production induced by forskolin, CHO cell line expressing the murine APJ receptor, De Mota et al., Neuroendocrinology, 2000) [nM]	internalization of the rat apelin receptor-EGFP (rat apelin receptor-EGFP [1]; [3])	internalisation of the APJ receptor (rat apelin receptor-EGFP [1]; at concentrations of 10^-8 M, Reaux et al. 2001, El Messari et al. 2004)	internalization of the rat apelin receptor-EGFP (rat apelin receptor-EGFP [2])
pE13F: apelin fragment apelin 13 (pE13F), non fluorescent (QRPRLSHKGPMPF; Apelin-13 N-terminal pyroglutamate; UniProt Q9ULZ1 65-77, looked up)	inhibit	0.2	intense internalization	massive internalisation	–
8: fluorescent apelin 13 fragment pE13F tagged with lissamine (QRPRLSHKGPMPF; Apelin-13 pyroglutamate; lissamine label; UniProt Q9ULZ1 65-77, looked up) [Compound 8]	–	–	–	–	numerous fluorescent vesicles distributed through the cytoplasm
